From the supplement of paper PMC11403291

Tests used:
ALDH1A3 = ALDH1A3 (UniProt P47895); test: IC50 of competition for binding to PARP-centric bead matrix; conditions: affinity matrix: PARP family-centric bead mix; lysate: MDA-MB-231
UniProt Q8TF76 = test: as above; conditions: affinity matrix: PARP family-centric bead mix; lysate: MDA-MB-231
UniProt Q9H2K2 = test: as above; conditions: affinity matrix: PARP family-centric bead mix; lysate: MDA-MB-231
CDK8 = CDK8 (UniProt P49336); test: as above; conditions: affinity matrix: PARP family-centric bead mix; lysate: MDA-MB-231
MAP3K6 = MAP3K6 (UniProt O95382); test: apparent dissociation constant pKd app (kinobead competition) (-log10(M)); higher = stronger binding
NEK1 = NEK1 (UniProt Q96PY6); test: as above
NUAK1 = NUAK1 (UniProt O60285); test: as above
CDC42BPG = CDC42BPG (UniProt Q6DT37); test: as above
PDIK1L = PDIK1L (UniProt Q8N165); test: as above
TAOK1 = biological target: T1, TAOK1 (UniProt Q7L7X3); test: as above
T1 sequence (whole entry): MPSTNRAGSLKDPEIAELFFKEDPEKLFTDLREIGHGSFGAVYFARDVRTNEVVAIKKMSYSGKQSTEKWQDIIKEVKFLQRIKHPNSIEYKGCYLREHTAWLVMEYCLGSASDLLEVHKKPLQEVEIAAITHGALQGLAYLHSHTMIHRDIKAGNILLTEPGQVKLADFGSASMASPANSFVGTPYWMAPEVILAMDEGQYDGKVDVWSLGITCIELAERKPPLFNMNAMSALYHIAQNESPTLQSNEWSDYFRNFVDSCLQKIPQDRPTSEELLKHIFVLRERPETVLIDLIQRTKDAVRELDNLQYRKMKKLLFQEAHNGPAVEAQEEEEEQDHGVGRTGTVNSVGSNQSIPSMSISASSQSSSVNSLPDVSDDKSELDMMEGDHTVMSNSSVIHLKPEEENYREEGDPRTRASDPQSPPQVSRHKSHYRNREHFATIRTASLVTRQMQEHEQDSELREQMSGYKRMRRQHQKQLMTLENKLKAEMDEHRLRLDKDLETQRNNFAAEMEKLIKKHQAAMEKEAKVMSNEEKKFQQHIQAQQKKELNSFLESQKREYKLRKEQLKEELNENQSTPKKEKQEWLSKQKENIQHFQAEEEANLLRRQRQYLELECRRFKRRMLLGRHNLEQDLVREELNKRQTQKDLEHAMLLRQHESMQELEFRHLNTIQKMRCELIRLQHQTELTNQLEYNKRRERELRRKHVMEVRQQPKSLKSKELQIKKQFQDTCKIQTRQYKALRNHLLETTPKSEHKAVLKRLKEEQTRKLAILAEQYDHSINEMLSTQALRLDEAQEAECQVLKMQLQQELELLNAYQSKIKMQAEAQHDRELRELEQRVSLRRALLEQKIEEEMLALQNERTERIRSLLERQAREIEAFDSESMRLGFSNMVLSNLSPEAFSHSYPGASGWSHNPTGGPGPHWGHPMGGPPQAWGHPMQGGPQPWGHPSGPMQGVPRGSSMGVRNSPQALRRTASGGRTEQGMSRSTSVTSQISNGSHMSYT

PCTK3 = PCTK3 (UniProt Q07002); test: as above
TESK1 = TESK1 (UniProt Q15569); test: as above
UniProt P19784 = test: IC50 of competition for binding to immobilized-niraparib matrix; conditions: affinity matrix: immobilized niraparib (NHS-Sepharose); lysate: 1:1:1:1 mix of HEK293, K-562, placenta, HepG2 Princen
ECH1 = ECH1 (UniProt Q13011); test: as above; conditions: affinity matrix: immobilized niraparib (NHS-Sepharose); lysate: 1:1:1:1 mix of HEK293, K-562, placenta, HepG2 Princen
UniProt Q9Y233 = test: as above; conditions: affinity matrix: immobilized niraparib (NHS-Sepharose); lysate: 1:1:1:1 mix of HEK293, K-562, placenta, HepG2 Princen
PARP14 = PARP14 (UniProt Q460N5); test: as above; conditions: affinity matrix: immobilized niraparib (NHS-Sepharose); lysate: 1:1:1:1 mix of HEK293, K-562, placenta, HepG2 Princen
ALDH1A1 = ALDH1A1 (UniProt P00352); test: as above; conditions: affinity matrix: immobilized niraparib (NHS-Sepharose); lysate: 1:1:1:1 mix of HEK293, K-562, placenta, HepG2 Princen
BICRA = BICRA (UniProt Q9NZM4); test: IC50 of competition for binding to PARP-centric bead matrix; conditions: affinity matrix: PARP family-centric bead mix; lysate: MDA-MB-231
TEX264 = TEX264 (UniProt Q9Y6I9); test: as above; conditions: affinity matrix: PARP family-centric bead mix; lysate: MDA-MB-231
HIPK2 = HIPK2 (UniProt Q9H2X6); test: apparent dissociation constant pKd app (kinobead competition) (-log10(M)); higher = stronger binding
CSNK2A1 = CSNK2A1 (UniProt P68400); test: as above
DYRK1A = DYRK1A (UniProt Q13627); test: as above
PCTK1 = PCTK1 (UniProt Q00536); test: as above
PDGFRB = PDGFRB (UniProt P09619); test: as above
CSNK1A1 = CSNK1A1 (UniProt P48729); test: as above
CHUK = CHUK (UniProt O15111); test: as above
UniProt Q8WWA0 = test: IC50 of competition for binding to immobilized-niraparib matrix; conditions: affinity matrix: immobilized niraparib (NHS-Sepharose); lysate: 1:1:1:1 mix of HEK293, K-562, placenta, HepG2 Princen

IC50 (ALDH1A3) [µM] | IC50 (UniProt Q8TF76) [µM] | IC50 (UniProt Q9H2K2) [µM] | IC50 (CDK8) [µM] | apparent dissociation constant pKd app (-log10) (MAP3K6) | apparent dissociation constant pKd app (-log10) (NEK1) | apparent dissociation constant pKd app (-log10) (NUAK1) | apparent dissociation constant pKd app (-log10) (CDC42BPG) | apparent dissociation constant pKd app (-log10) (PDIK1L) | apparent dissociation constant pKd app (-log10) (TAOK1) | apparent dissociation constant pKd app (-log10) (PCTK3) | apparent dissociation constant pKd app (-log10) (TESK1) | IC50 (UniProt P19784) [µM] | IC50 (ECH1) [µM] | IC50 (UniProt Q9Y233) [µM] | IC50 (PARP14) [µM] | IC50 (ALDH1A1) [µM] | IC50 (BICRA) [µM] | IC50 (TEX264) [µM] | apparent dissociation constant pKd app (-log10) (HIPK2) | apparent dissociation constant pKd app (-log10) (CSNK2A1) | apparent dissociation constant pKd app (-log10) (DYRK1A) | apparent dissociation constant pKd app (-log10) (PCTK1) | apparent dissociation constant pKd app (-log10) (PDGFRB) | apparent dissociation constant pKd app (-log10) (CSNK1A1) | apparent dissociation constant pKd app (-log10) (CHUK) | IC50 (UniProt Q8WWA0) [µM] | SMILES
1.9 | 1.5 | > 30 | > 30 | < 4.5 | < 4.5 | < 4.7 | < 4.5 | < 4.6 | < 4.6 | < 4.6 | < 4.7 | 4.8 | 4.81 | 13 | > 30 | 1.5 |  |  |  |  |  |  |  |  |  |  | NC(=O)c1cccc2cn(-c3ccc([C@@H]4CCCNC4)cc3)nc12 [Niraparib]
> 30 | > 30 |  |  | < 4.5 | < 4.5 | < 4.7 | < 4.5 | < 4.6 | < 4.6 |  |  |  |  |  |  |  | > 30 | > 30 | < 4.7 | < 4.5 | < 4.6 | < 4.5 | < 4.5 | < 4.5 | < 4.5 | > 30 | O=C(c1cc(Cc2n[nH]c(=O)c3ccccc23)ccc1F)N1CCN(C(=O)C2CC2)CC1 [Olaparib]
 |  | 0.0155 | > 30 |  |  |  |  |  | < 4.6 | < 4.6 | < 4.7 | > 30 | > 30 | > 30 | > 30 | > 30 | > 30 | > 30 | < 4.7 | < 4.5 | < 4.6 | < 4.5 | < 4.5 | < 4.5 | < 4.5 | > 30 | Cn1ncnc1[C@H]1c2n[nH]c(=O)c3cc(F)cc(c23)N[C@@H]1c1ccc(F)cc1 [Talazoparib]
